Experimental data from PMC12724200 (mSphere, 2025).

Chains of the proteins cited; added tags and fusions are not shown. Residues count along the entry.
UniProt Q03W64, 1-326: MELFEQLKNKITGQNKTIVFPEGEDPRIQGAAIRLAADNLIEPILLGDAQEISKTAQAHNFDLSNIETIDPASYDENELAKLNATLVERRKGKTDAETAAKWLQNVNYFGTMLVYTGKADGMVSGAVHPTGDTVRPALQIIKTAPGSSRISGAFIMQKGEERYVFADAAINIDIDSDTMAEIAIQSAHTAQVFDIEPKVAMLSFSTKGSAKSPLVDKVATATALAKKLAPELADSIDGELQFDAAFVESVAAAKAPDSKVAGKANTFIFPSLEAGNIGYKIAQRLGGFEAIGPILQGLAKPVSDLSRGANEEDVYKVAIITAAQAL

Experiments:
L. mesenteroides PTA = L. mesenteroides PTA (Leuconostoc mesenteroides, UniProt Q03W64); assay type: biochemical

## Dimethyldithiocarbamate [DMDC]
MRC-5
  50% lethal conc. LC50: 11 µg/mL
  85% survival conc.: 2 µg/mL
  LC50/MIC: 7
L. mesenteroides PTA
  IC50: > 1000 µM
A549
  50% lethal conc. LC50: 24 µg/mL
  85% survival conc.: 10 µg/mL
  LC50/MIC: 15
THP-1
  50% lethal conc. LC50: 327 µg/mL
  85% survival conc.: 200 µg/mL
  LC50/MIC: 210
